# Results reported in US7704990B2, “Agents for preventing and treating disorders involving modulation of the RyR receptors” (The Trustees of Columbia University in the City of New York, priority 2005, dated 2010).
# Amino acid sequences for entries named in this document (tags omitted).
# UniProt E9Q401, whole entry: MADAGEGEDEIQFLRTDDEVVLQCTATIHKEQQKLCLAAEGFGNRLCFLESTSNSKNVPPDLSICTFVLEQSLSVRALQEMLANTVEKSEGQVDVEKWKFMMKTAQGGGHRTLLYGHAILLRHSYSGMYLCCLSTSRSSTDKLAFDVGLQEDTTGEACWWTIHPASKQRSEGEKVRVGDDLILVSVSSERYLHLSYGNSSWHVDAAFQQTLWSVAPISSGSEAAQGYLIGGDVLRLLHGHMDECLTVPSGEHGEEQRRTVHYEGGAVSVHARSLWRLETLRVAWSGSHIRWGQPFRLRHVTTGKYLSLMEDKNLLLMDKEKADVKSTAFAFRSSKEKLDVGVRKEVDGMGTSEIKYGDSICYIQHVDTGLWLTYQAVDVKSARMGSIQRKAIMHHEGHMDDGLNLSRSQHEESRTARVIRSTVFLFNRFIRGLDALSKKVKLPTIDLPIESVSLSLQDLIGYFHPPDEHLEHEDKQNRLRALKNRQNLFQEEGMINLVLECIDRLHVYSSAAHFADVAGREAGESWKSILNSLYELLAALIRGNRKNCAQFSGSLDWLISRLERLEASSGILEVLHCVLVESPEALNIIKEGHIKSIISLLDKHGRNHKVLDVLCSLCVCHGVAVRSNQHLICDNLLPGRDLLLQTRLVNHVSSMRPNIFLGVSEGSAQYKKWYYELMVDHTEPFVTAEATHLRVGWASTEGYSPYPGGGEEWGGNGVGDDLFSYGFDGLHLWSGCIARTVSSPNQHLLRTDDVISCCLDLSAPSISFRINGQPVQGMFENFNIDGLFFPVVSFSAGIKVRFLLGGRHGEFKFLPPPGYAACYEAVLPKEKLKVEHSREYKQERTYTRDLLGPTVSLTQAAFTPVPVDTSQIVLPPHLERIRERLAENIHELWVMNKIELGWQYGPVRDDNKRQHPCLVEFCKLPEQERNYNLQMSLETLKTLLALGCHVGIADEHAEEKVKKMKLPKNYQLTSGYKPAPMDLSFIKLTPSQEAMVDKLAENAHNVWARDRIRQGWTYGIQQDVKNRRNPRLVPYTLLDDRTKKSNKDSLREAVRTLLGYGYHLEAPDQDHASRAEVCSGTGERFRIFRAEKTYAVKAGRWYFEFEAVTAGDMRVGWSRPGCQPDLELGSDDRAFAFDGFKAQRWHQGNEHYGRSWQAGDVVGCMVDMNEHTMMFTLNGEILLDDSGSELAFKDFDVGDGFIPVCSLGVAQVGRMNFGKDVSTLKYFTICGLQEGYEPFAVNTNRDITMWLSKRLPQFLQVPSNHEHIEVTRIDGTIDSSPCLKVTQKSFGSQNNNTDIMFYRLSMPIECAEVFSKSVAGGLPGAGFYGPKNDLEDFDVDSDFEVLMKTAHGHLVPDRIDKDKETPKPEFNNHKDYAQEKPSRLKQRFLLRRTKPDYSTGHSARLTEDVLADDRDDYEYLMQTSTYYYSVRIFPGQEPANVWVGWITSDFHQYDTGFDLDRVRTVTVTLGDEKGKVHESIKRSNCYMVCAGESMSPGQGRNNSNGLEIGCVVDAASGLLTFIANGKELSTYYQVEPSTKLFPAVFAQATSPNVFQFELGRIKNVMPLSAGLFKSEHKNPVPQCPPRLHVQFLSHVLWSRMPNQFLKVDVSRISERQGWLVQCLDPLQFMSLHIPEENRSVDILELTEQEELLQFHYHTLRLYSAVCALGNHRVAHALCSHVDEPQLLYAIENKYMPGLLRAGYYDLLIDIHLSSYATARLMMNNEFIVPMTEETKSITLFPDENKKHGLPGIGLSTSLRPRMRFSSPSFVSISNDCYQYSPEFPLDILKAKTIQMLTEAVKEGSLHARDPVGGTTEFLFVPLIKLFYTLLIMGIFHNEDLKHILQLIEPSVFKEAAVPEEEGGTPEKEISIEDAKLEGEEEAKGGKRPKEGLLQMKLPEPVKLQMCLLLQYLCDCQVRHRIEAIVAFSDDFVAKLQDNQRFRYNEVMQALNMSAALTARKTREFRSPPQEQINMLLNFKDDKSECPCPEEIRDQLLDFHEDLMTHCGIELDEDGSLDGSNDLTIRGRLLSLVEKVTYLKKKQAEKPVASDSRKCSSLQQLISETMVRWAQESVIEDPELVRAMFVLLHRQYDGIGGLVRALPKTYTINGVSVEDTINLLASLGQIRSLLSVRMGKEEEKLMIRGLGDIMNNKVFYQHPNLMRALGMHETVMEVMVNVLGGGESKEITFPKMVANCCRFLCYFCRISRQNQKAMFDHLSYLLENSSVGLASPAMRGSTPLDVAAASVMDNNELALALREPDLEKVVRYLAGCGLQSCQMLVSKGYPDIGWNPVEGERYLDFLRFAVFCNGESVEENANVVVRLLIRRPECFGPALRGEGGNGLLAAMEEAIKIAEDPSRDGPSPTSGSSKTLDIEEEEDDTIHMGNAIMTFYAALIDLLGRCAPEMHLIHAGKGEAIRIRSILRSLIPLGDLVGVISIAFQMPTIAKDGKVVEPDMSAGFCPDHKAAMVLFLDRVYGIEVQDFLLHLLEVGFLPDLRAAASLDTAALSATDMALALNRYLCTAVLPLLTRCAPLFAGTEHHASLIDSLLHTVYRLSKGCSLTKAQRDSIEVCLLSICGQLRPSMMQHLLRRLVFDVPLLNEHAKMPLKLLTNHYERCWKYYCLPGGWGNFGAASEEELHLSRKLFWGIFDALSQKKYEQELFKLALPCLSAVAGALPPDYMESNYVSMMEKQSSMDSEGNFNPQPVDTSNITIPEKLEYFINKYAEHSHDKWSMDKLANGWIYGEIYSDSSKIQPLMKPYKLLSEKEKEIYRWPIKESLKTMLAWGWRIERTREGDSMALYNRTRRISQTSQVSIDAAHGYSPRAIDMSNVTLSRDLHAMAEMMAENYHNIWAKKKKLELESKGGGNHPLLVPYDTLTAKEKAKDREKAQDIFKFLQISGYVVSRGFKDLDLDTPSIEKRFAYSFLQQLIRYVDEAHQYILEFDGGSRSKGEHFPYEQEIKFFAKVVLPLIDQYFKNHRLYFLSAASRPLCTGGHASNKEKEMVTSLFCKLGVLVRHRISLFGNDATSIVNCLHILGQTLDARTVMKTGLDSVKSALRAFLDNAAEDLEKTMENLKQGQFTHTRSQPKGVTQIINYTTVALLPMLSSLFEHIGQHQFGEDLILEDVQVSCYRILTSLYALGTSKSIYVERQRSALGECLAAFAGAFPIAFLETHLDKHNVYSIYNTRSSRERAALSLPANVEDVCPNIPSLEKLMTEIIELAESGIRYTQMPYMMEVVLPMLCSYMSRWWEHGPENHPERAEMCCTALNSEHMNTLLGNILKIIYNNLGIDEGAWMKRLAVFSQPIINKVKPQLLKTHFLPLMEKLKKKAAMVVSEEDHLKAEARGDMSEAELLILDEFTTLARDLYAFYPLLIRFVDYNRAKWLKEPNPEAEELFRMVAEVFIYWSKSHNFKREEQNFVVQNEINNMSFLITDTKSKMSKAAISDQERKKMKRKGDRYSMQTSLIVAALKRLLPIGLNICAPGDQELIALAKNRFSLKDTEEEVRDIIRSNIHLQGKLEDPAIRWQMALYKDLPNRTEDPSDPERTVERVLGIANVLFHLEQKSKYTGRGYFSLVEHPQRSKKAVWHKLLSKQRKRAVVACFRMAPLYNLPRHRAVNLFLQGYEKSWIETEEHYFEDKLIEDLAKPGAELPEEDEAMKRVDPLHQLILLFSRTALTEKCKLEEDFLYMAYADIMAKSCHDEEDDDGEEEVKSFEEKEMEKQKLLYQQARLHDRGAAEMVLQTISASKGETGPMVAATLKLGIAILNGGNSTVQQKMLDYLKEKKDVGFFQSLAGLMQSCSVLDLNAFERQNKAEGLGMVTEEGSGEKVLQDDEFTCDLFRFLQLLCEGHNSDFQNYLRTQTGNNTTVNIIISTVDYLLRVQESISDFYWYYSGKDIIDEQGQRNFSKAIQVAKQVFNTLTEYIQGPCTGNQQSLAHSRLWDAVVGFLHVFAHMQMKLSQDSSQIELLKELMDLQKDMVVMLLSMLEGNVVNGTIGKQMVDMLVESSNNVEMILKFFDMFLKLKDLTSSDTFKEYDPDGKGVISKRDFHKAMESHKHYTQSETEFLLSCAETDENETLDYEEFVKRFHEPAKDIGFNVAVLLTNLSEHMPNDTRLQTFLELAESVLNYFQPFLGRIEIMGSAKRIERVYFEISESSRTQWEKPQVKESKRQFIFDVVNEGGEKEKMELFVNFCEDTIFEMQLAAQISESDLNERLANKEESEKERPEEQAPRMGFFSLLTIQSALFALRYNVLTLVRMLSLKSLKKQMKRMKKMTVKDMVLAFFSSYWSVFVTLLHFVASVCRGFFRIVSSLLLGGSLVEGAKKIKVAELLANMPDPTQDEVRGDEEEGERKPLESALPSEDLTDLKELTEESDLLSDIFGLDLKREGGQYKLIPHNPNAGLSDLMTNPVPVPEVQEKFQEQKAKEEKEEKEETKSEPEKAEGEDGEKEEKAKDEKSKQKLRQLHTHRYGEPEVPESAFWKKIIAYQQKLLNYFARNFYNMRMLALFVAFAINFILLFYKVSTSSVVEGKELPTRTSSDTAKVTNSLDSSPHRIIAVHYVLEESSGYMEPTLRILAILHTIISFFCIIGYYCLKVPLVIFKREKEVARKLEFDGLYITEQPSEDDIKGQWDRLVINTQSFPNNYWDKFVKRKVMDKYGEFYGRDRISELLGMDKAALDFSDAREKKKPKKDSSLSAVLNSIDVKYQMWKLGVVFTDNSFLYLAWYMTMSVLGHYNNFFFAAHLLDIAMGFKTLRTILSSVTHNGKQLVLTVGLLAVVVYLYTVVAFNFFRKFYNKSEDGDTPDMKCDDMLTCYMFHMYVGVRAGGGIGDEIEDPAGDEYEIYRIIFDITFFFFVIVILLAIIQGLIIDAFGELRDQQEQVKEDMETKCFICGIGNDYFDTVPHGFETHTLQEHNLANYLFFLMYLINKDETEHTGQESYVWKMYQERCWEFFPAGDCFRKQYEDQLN
# Assays:
# RyR2 [1] = target: T1, RyR2 (Mus musculus, UniProt E9Q401)
# RyR2-P2328S = target: T2, RyR2-P2328S (Homo sapiens, UniProt Q92736, P2328S); test: Single-channel recordings of CPVT-associated RyR2-P2328S; assay type: biochemical; details: unphosphorylated RyR2-P2328S and PKA-phosphorylated RyR2-WT
# T2 construct: made in house
# RyR2 [2] = target: T1, RyR2; details: 0.5 mg/kg/h for 28 days post-myocardial infarction
# [3] = target: T3, PKA phosphorylated RyR2 / calstabin2 (Homo sapiens, UniProt Q92736); details: cardiac RyR2 with calstabin2, immunoblotting
# [4] = target: T3, PKA phosphorylated RyR2 / calstabin2
compound,measurement,setting,value
"COc1ccc2c(c1)CN(C(=O)CCN1CCC(Cc3ccccc3)CC1)CCS2.Cl [JTV-519, 4-[3-(4-benzylpiperidin-1-yl)propionyl]-7-methoxy-2,3,4,5-tetrahydro-1,4-benzothiazepine monohydrochloride]",channel open probability (Po),"RyR2 [1]; exercised calstabin2+/- mice, vs untreated exercised mice",significantly reduced
same,channel open probability (Po),RyR2 [1]; exercised calstabin2-/- deficient mice,did not result in channels with a low Po
same,depletion of calstabin2 from the RyR2 macromolecular complex,RyR2 [1]; haploinsufficient calstabin2+/- mice,reversed
same,baseline channel function,RyR2-P2328S,no influence
same,PKA phosphorylation of RyR2,RyR2 [2]; calstabin-2 (FKBP12.6)-/- mice,not
same,PKA phosphorylation of RyR2,RyR2 [2]; wildtype mice,reduces
same,concentration that increased the binding affinity of calstabin for RyR,[3],≥ 50 nM
same,affinity of calstabin2 for PKA-phosphorylated RyR2 channels,[4],significantly increases

# Read-outs that look alike come from different tables or passages of the source.
